# Results as given in PubChem BioAssay AID1628 (Sanford-Burnham Center for Chemical Genomics, 2009).
# “And” between values parts separate entries of the source, which are not always exact repeats. Equal entries are not always repeated. This is a selection; strong and weak results do not stand in their true shares. Entries with a potency or affinity are not part of this list. The source made the active and inactive calls.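 Rule for the calls: active = z-score of insulin promoter reporter brightness in nuclei below -3 at 5 µM, with at least 500 cells counted; inconclusive = wells with under 500 cells, flagged as toxic or sparse; inactive = the rest.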
# Experiment: insulin promoter down-regulators in MIN6 cells, imaging, high-content screening, mouse beta cells (AID 1628)
# Conditions: MIN6 insulin promoter GFP reporter, at 5 µM, active compounds read low
row,Compound,z-score
1,Cc1ccc(OP(=O)(Nc2nccs2)Oc2ccc(C)cc2)cc1,inactive: -0.02
2,COc1ccccc1OP(=O)(Nc1ccc(C)cn1)Oc1ccccc1OC,inactive: 0.1
3,Cc1ccc(N/C(=N/P(=O)(N2CCOCC2)N2CCOCC2)N2CCOCC2)cc1,inactive: -0.33
4,NC(=O)c1cc([N+](=O)[O-])cc([N+](=O)[O-])c1N,inactive: -0.23
5,Cc1c2non([O-])c-2c(C)[n+](=O)[n+]1[O-],inactive: 0.15
6,Oc1ccccc1CNc1ccccn1,inactive: 1.03
7,Cc1ccc(NP(=O)(Oc2ccccc2F)Oc2ccccc2F)nc1,inactive: 0.46
8,CCOP(=O)(Nc1ccccc1)OCC,inactive: -0.31 and inactive: 0.07
9,Cc1cc(SC(NC(=O)c2ccc(F)cc2)C(Cl)(Cl)Cl)ncn1 (stereo not given),inactive: -0.56
10,O=P(Nc1nc2ccc(Cl)cc2s1)(c1ccccc1)c1ccccc1,inactive: -0.02
11,O=C(O)c1ccccc1[As](=O)(O)O,inactive: 2.48
12,CC(=O)Nc1ccc([As](=O)(O)O)cc1,inactive: -0.79
13,Nc1cccc2ccc([As](=O)(O)O)cc12,inactive: -1.47
14,CCN(N=Nc1nonc1N)c1nonc1N,inactive: 0.06
15,O=C(Nc1cc([As](=O)(O)O)ccc1O)c1ccccc1,inactive: 0.2
16,O=C(O)CNc1ccc([As](=O)(O)O)cc1,inactive: -0.21
17,O=[N+]([O-])c1cccc(NC2=NCC(CBr)S2)c1 (stereo not given),inactive: -0.22
18,O=[N+]([O-])c1ncn(CCn2ncnc2[N+](=O)[O-])n1,inactive: 1.07
19,CC(C)(C)C(=O)NC(Sc1ccncn1)C(Cl)(Cl)Cl (stereo not given),inactive: 0.68
20,CCc1nc2c(n1)c1c(non1O)c1c2no[n+]1[O-],inactive: -0.23
21,Cc1ccc(NP(=O)(Oc2ccccc2)Oc2ccccc2)nc1,inactive: -0.03
22,COc1ccc(C2=NCC(CBr)S2)cc1 (stereo not given),inactive: 0.22

row,Compound,z-score
1,CC1CCN(C(=O)Oc2c(Cl)cc(Cl)c3cccnc23)CC1,inactive: -0.04
2,CC(C)=N/N=C(\N)N[N+](=O)[O-],inactive: 0.05
3,CCN(/C(=N/P(=O)(N1CCOCC1)N1CCOCC1)N1CCOCC1)c1ccc(OC)cc1,inactive: 0.2
4,C[N+]1=C2C=CC=CC=C2SC12C([N+](=O)[O-])=CC([N+](=O)[O-])=C[C-]2[N+](=O)[O-] (stereo not given),inactive: -0.5
5,Nc1ccc([As](=O)(O)c2ccc(N)cc2)cc1,inactive: -0.15
6,O=C(COc1ccccc1)OC1CN2CCC1CC2 (stereo not given),inactive: -0.74
7,COP1(=S)c2c(C)nn(CCC#N)c2N=C(c2ccc(F)cc2)N1C (stereo not given),inactive: 0.56
8,CCC(C)N(CC(C)C)C(=S)SC(NC(C)=O)C(Cl)(Cl)Cl (stereo not given),inactive: 0.23
9,CCOC(=O)c1ccc(NC(=O)C(C)(CCl)SC)cc1 (stereo not given),inactive: 0.17
10,Cc1cc(SC(NC(=O)c2ccccc2)C(Cl)(Cl)Cl)nc(C(C)C)n1 (stereo not given),inactive: -0.38
11,CCOC(=O)Nc1ccc([As](=O)(O)O)c(O)c1,inactive: 0.07
12,O=P(Nc1ccccn1)(c1cccc2ccccc12)c1cccc2ccccc12,inactive: -0.05
13,Cc1cc(SC(NC=O)C(Cl)(Cl)Cl)ncn1 (stereo not given),inactive: 1.65
14,O=[N+]([O-])c1ccc(Nc2ccc(Oc3ccc([N+](=O)[O-])cc3[N+](=O)[O-])cc2)c([N+](=O)[O-])c1,inactive: -0.43
15,CCOC(=O)Nc1cccc([As](=O)(O)O)c1,inactive: -0.38
16,Cc1ccc(OP(=O)(Nc2ccc([N+](=O)[O-])cn2)Oc2ccc(C)cc2)cc1,inactive: 0.54
17,Cc1ccc2nc3c(c(C)c2c1)CC(C(Cl)Cl)S3 (stereo not given),inactive: -0.02
18,C[As](=O)(O)c1cccc(C(=O)O)c1,inactive: 0.27
19,O=[As](O)(c1ccc(O)cc1)c1ccccc1O,inactive: -0.01
20,O=[N+]([O-])c1cc([N+](=O)[O-])c(-c2ccn[nH]2)s1,inactive: -1.73
21,CC(C)NC(=O)NP(=O)(Oc1ccccc1)Oc1ccccc1,inactive: 0.54
22,ClCCSc1nnc(-c2cccnc2)o1,inactive: 0.67

row,Compound,z-score
1,CC(C)c1ccc(OP(=O)(Nc2ccccn2)Oc2ccccc2F)cc1 (stereo not given),inactive: 0.39
2,COc1cc(I)ccc1[As](=O)(O)O,inactive: -0.14
3,COc1ccc2nc(NP(=O)(c3ccccc3)c3ccccc3)sc2c1,inactive: -0.71
4,Cc1c2c(nc3ccccc13)SC(C(Cl)Cl)C2 (stereo not given),inactive: 0.46
5,Cc1cc(=O)[nH]c(N[N+](=O)[O-])n1,inactive: 0.56
6,O=C(OC1CN2CCC1CC2)C12CC3CC(CC(C3)C1)C2 (stereo not given),inactive: 0.51
7,COc1ccc(N/C(=N/P(=O)(N2CCOCC2)N2CCOCC2)N2CCOCC2)cc1,inactive: -0.27
8,O=[As](O)(c1cccc(O)c1)c1cccc(O)c1,inactive: 0.8
9,Cc1cccc(OCC(=O)OC2CN3CCC2CC3)c1 (stereo not given),inactive: -0.37
10,O=C(OC1CN2CCC1CC2)c1ccc(Cl)cc1 (stereo not given),inactive: 1.1
11,COc1cc(C(=O)NCC2(N3CCOCC3)CCCCC2)cc(Cl)c1OC(C)C,inactive: 0.46
12,O=[As](O)(O)c1cccnc1,inactive: -0.11
13,CCOP(=O)(Nc1cccc2ccccc12)OCC,inactive: 0.2
14,COc1cc(C2NCCC3(OCCO3)C2(C)C)cc(OC)c1OC (stereo not given),inactive: -0.31
15,Nc1cccc2c([As](=O)(O)O)cccc12,inactive: -0.09
16,Cc1ccc(NCCc2c([N+](=O)[O-])cc([N+](=O)[O-])cc2[N+](=O)[O-])cc1,inactive: -0.2
17,CCCOP(=S)(Nc1nc(N)cc(=O)[nH]1)OCCC,inactive: 1.75
18,Nc1ccccc1[As](=O)(O)c1ccccc1,inactive: 0.18
19,O=C(O)COc1ccc([As](=O)(O)O)cc1[N+](=O)[O-],inactive: -1.14
20,O=P(Nc1nccs1)(c1ccccc1)c1nc2ccccc2s1 (stereo not given),inactive: -0.45
21,CCOP1(=S)c2c(C)nn(CCC#N)c2N=C(c2ccccc2F)N1C (stereo not given),inactive: -0.88
22,CS(=O)(=O)c1cc([N+](=O)[O-])c2no[n+]([O-])c2c1,inactive: 1.11

row,Compound,z-score
1,CCOP1(=S)c2c(C)nn(CCC#N)c2N=C(c2ccc(F)cc2)N1C (stereo not given),inactive: -0.46
2,CN(C(=O)Cc1ccccc1)[C@@H]1CC[C@]2(CCCO2)C[C@H]1N1CCCC1,inactive: -0.36
3,O=[N+]([O-])c1ccc2c(c1)nnn2O,inactive: 0.08
4,CN(C)C1(CNC(=O)c2ccc(S(C)(=O)=O)cc2)CCCCC1,inactive: 0.6
5,O=C(/C=C/c1ccccc1)OC1CN2CCC1CC2 (stereo not given),inactive: 0.76
6,CC1CCC(C(C)C)C(OP(=O)(Nc2ccccn2)c2ccccc2)C1 (stereo not given),inactive: 0.16
7,Cc1nn(-c2ccccc2)c2c1P(=O)(N1CCOCC1)N(C)C(c1ccccc1)=N2 (stereo not given),inactive: -1.2
8,Nc1cccc([As](=O)(O)c2ccccc2)c1,inactive: -0.21
9,O=P1(Nc2ccc(Br)cn2)COc2ccccc2OC1,inactive: 0.16
10,O=[As](O)(c1cccs1)c1cccs1,inactive: 0.56
11,Cc1ccc(OCC(=O)OC2CN3CCC2CC3)cc1 (stereo not given),inactive: 1.15
12,O=P1(Nc2ncccn2)COc2ccccc2OC1,inactive: 2.07
13,CC(C)(C)C(=O)NC(Sc1ncccn1)C(Cl)(Cl)Cl (stereo not given),inactive: 0.35
14,Clc1n[nH]nc1-c1nn[nH][15n]1,inactive: 0.99
15,O=P1(Nc2ccccn2)COc2ccccc2OC1,inactive: 0.03
16,CCOP(=O)(Nc1ccc(C)cn1)OCC,inactive: -0.27
17,CC(C)/C=N\N=C(\N)N[N+](=O)[O-],inactive: -0.61
18,CN(C(=O)Cc1ccc(Cl)c(Cl)c1)[C@@H]1CCCC[C@H]1N1CCCC1,inactive: -0.01
19,O=[As](O)(c1ccccc1Br)c1ccccc1Br,inactive: 0.05
